Measurements as given in patent US20260382731A1, “BCL-2/BCL-XL PROTEIN DEGRADER AND USE THEREOF” (published 2026).

Protein sequences, listed by entry. Tags and fused reporters are not part of them.
UniProt Q07817, whole entry: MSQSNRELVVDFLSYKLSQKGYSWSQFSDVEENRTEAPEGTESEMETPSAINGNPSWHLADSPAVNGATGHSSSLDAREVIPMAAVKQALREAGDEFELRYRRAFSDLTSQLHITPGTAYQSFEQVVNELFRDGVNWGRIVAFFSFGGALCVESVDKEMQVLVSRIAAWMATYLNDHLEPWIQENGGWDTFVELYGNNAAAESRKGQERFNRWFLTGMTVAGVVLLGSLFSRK

Experiments:
BCL-XL = BCL-XL (Homo sapiens, UniProt Q07817); assay: Immunoblotting: BCL-XL protein degradation; conditions: read-out: MDA-MB-231 degradation DC50, MDA-MB-231 cells
From the text: Cells were collected and lysed in a lysis buffer (Cat. No. BP-115DG, Boston Bio Products, Ashland, MA, USA) containing protease and phosphatase inhibitor cocktails (Cat. No. PPC1010, Sigma-Aldrich, St. Louis, MO, USA). An equal amount of protein lysates was separated on precasted 4-20% Tris-glycine gels (Mini-PROTEAN TGX, Cat. No. 456-1094, Bio-Rad, Hercules, CA, USA). Thereafter, the proteins were transferred to PVDF membranes (Cat. No. LC2002, MilliporeSigma, Billerica, MA, USA). The membranes were blocked with 5% w/v nonfat dry milk in TBS+Tween-20 (0.1% v/v) and then probed with primary antibodies overnight at 4 °C. Next day, the membranes were washed and incubated with appropriate horseradish peroxidase (HRP)-conjugated secondary antibodies. Primary antibodies against BCL-XL (Cat. No. 2762) and Pactin (Cat. No. 4970) and the secondary HRP-linked antibody (Cat. No. 7074) were purchased from Cell Signaling Technology (Danvers, MA, USA). The signal was detected using the ECL substrate (Cat. No. WBKLS0500, MilliporeSigma, Billerica, MA, USA) and captured on the ChemiDoc MP Imaging System (Bio-Rad, Hercules, CA, USA). The band intensities were calculated on the ImageJ software and normalized to equal loading control β-actin.

MOLT-4 cells = assay: Cell viability assay, MOLT-4 (CellTiter-Glo, 72 h); conditions: read-out: MOLT4 Cell viability IC50
human platelets = assay: Platelet viability test (CellTiter-Glo, 72 h); conditions: read-out: Human platelet IC50
Protocol: Human platelet-rich Plasma (PRP) was purchased from Milestone® Biotechnology Limited. PRPS are used for experiments immediately after arrival. Transfer PRP to a 50-mL polypropylene EP tube containing 5 mL citrate buffer (cat. no. sc-214744, Santa Cruz Biotechnology). To avoid clotting, The final concentration of prostaglandin E1 (PGE1, cat. no. sc-201223A, Santa Cruz Biotechnology) and adenosine diphosphonase triphosphate (cat. no. A6410-200UN, 2 units/mL, respectively) were added to the EP tube. Sigma-Aldrich). Slightly shake and mix the liquid in the EP tube, centrifuge it at 1200 g for 10 minutes, and separate the platelets. HEPES buffer benchtop solution (10 mM HEPES, 135 mM NaCl, 2.8 mM KCl, 1 mM MgCl2, 2 mM CaCl2), 10 mm Hepes, 135 mm NaCl, 2.8 mm KCL, 1 mm MgCl2, 2 mm CaCl2)) was prepared with 2 mL of prostaglandin E1 and 2 units/mL of adenosine bisphosphonase triphosphate. 12 mM NaHCO3, 0.4 mM NaH2PO4, 0.25% BSA and 5.5 mM glucose, pH 7.4; cat. no. Cat. No. Cat. #:25-02580, Tiandz) continuously and gently clean the platelet precipitates after centrifugation. After washing, platelets were slowly reinserted to HEPES buffer table solution containing 1 μM of prostaglandin E1 and 2 units/mL of adenosine bisphosphonase triphosphate. Platelets were counted by Vi-cell XR (Backman) cell counter. Platelet activity tests were performed: platelets were resuscitated into a HEPES buffer solution containing 1 µM of prostaglandin E1 and 2 units/mL of adenosine bisphosphonase triphosphate and 10% FBS, counted, and inoculated into 96-well plates with 5×10^5 platelets per well. Different concentrations of the compound to be detected (starting at 10 μM, diluted 3 times) were added to 96-well plates and incubated in the cell incubator for 72 h. 72 h after administration, platelet activity was detected by CellTiter-Glo™ luminescence assay.

SMILES	DC50 (BCL-XL) [nM]	IC50 (MOLT-4 cells) [nM]	IC50 (human platelets) [nM]
CCn1c(C)c(S(C)(=O)=O)c(-c2cc(F)cc(N3CCN(c4ccc(NS(=O)(=O)c5ccc(N[C@H](CCN6CCN(C(=O)C7CCN(CC(=O)N[C@H](C(=O)N8C[C@H](O)C[C@H]8C(=O)N[C@@H](C)c8ccc(-c9scnc9C)cc8)C(C)(C)C)CC7)CC6)CSc6ccccc6)c(S(=O)(=O)C(F)(F)F)c5)cc4)CC3)c2)c1-c1ccc(F)cc1	32	15	232
CCn1c(C)c(C(=O)N2CCC(O)(CF)C2)c(-c2cc(F)cc(N3CCN(c4ccc(NS(=O)(=O)c5ccc(N[C@H](CCN6CCN(C(=O)CCCCCC(=O)N[C@H](C(=O)N7C[C@H](O)C[C@H]7C(=O)N[C@@H](C)c7ccc(-c8scnc8C)cc7)C(C)(C)C)CC6)CSc6ccccc6)c(S(=O)(=O)C(F)(F)F)c5)cc4)CC3)c2)c1-c1ccc(F)cc1 (stereo partly drawn)	10	20	4120
CCn1c(C)c(C(=O)N2C[C@@H](O)[C@@H](O)C2)c(-c2cc(F)cc(N3CCN(c4ccc(NS(=O)(=O)c5ccc(N[C@H](CCN6CCN(C(=O)CCCCCC(=O)N[C@H](C(=O)N7C[C@H](O)C[C@H]7C(=O)N[C@@H](C)c7ccc(-c8scnc8C)cc7)C(C)(C)C)CC6)CSc6ccccc6)c(S(=O)(=O)C(F)(F)F)c5)cc4)CC3)c2)c1-c1ccc(F)cc1	7	45	3900
CCn1c(C)c(C(=O)N2CCC(NS(C)(=O)=O)C2)c(-c2cc(F)cc(N3CCN(c4ccc(NS(=O)(=O)c5ccc(N[C@H](CCN6CCN(C(=O)CCCCCC(=O)N[C@H](C(=O)N7C[C@H](O)C[C@H]7C(=O)N[C@@H](C)c7ccc(-c8scnc8C)cc7)C(C)(C)C)CC6)CSc6ccccc6)c(S(=O)(=O)C(F)(F)F)c5)cc4)CC3)c2)c1-c1ccc(F)cc1 (stereo partly drawn)	6	23	7420
CCn1c(C)c(C(=O)N2CC[C@@H](NC(C)=O)C2)c(-c2cc(F)cc(N3CCN(c4ccc(NS(=O)(=O)c5ccc(N[C@H](CCN6CCN(C(=O)CCCCCC(=O)N[C@H](C(=O)N7C[C@H](O)C[C@H]7C(=O)N[C@@H](C)c7ccc(-c8scnc8C)cc7)C(C)(C)C)CC6)CSc6ccccc6)c(S(=O)(=O)C(F)(F)F)c5)cc4)CC3)c2)c1-c1ccc(F)cc1	26	10	680
CCn1c(C)c(S(C)(=O)=O)c(-c2cc(F)cc(N3CCN(c4ccc(NS(=O)(=O)c5ccc(N[C@H](CCN6CC[C@H](NC(=O)CCCCCC(=O)N[C@H](C(=O)N7C[C@H](O)C[C@H]7C(=O)N[C@@H](C)c7ccc(-c8scnc8C)cc7)C(C)(C)C)C6)CSc6ccccc6)c(S(=O)(=O)C(F)(F)F)c5)cc4)CC3)c2)c1-c1ccc(F)cc1	22	15	548
CCn1c(C)c(S(C)(=O)=O)c(-c2cc(F)cc(N3CCN(c4ccc(NS(=O)(=O)c5ccc(N[C@H](CCN6CCN(CCCCOCC(=O)N[C@H](C(=O)N7C[C@H](O)C[C@H]7C(=O)N[C@@H](C)c7ccc(-c8scnc8C)cc7)C(C)(C)C)CC6)CSc6ccccc6)c(S(=O)(=O)C(F)(F)F)c5)cc4)CC3)c2)c1-c1ccc(F)cc1	3	22	74
CCn1c(C)c(C(=O)NCCCN2CCOCC2)c(-c2cc(F)cc(N3CCN(c4ccc(NS(=O)(=O)c5ccc(N[C@H](CCN6CCN(C(=O)CCCCCC(=O)N[C@H](C(=O)N7C[C@H](O)C[C@H]7C(=O)N[C@@H](C)c7ccc(-c8scnc8C)cc7)C(C)(C)C)CC6)CSc6ccccc6)c(S(=O)(=O)C(F)(F)F)c5)cc4)CC3)c2)c1-c1ccc(F)cc1	32	19	266
CCn1c(C)c(S(=O)(=O)N2CCC(S(C)(=O)=O)C2)c(-c2cc(F)cc(N3CCN(c4ccc(NS(=O)(=O)c5ccc(N[C@H](CCN6CCN(C(=O)CCCCCC(=O)N[C@H](C(=O)N7C[C@H](O)C[C@H]7C(=O)N[C@@H](C)c7ccc(-c8scnc8C)cc7)C(C)(C)C)CC6)CSc6ccccc6)c(S(=O)(=O)C(F)(F)F)c5)cc4)CC3)c2)c1-c1ccc(F)cc1 (stereo partly drawn)	2	11	31
CCn1c(C)c(C(=O)N2CCN(C)CC2)c(-c2cc(F)cc(N3CCN(c4ccc(NS(=O)(=O)c5ccc(N[C@H](CCN6CCN(C(=O)CCCCCC(=O)N[C@H](C(=O)N7C[C@H](O)C[C@H]7C(=O)N[C@@H](C)c7ccc(-c8scnc8C)cc7)C(C)(C)C)CC6)CSc6ccccc6)c(S(=O)(=O)C(F)(F)F)c5)cc4)CC3)c2)c1-c1ccc(F)cc1	6	24	134
CCn1c(C)c(S(C)(=O)=O)c(-c2cc(F)cc(N3CCN(c4ccc(NS(=O)(=O)c5ccc(N[C@H](CCN6CCN(C(=O)CCCOCC(=O)N[C@H](C(=O)N7C[C@H](O)C[C@H]7C(=O)N[C@@H](C)c7ccc(-c8scnc8C)cc7)C(C)(C)C)CC6)CSc6ccccc6)c(S(=O)(=O)C(F)(F)F)c5)cc4)CC3)c2)c1-c1ccc(F)cc1	3	31	640
CCn1c(C)c(S(=O)(=O)N2CC3COCC3C2)c(-c2cc(F)cc(N3CCN(c4ccc(NS(=O)(=O)c5ccc(N[C@H](CCN6CCN(C(=O)CCCCCC(=O)N[C@H](C(=O)N7C[C@H](O)C[C@H]7C(=O)N[C@@H](C)c7ccc(-c8scnc8C)cc7)C(C)(C)C)CC6)CSc6ccccc6)c(S(=O)(=O)C(F)(F)F)c5)cc4)CC3)c2)c1-c1ccc(F)cc1 (stereo partly drawn)	28	12	400
CCn1c(C)c(C(=O)N2CC[C@H](NC(C)=O)C2)c(-c2cc(F)cc(N3CCN(c4ccc(NS(=O)(=O)c5ccc(N[C@H](CCN6CCN(C(=O)CCCCCC(=O)N[C@H](C(=O)N7C[C@H](O)C[C@H]7C(=O)N[C@@H](C)c7ccc(-c8scnc8C)cc7)C(C)(C)C)CC6)CSc6ccccc6)c(S(=O)(=O)C(F)(F)F)c5)cc4)CC3)c2)c1-c1ccc(F)cc1	5	28	647
CCn1c(C)c(S(=O)(=O)N2CC[C@](C)(O)C2)c(-c2cc(F)cc(N3CCN(c4ccc(NS(=O)(=O)c5ccc(N[C@H](CCN6CCN(C(=O)CCCCCC(=O)N[C@H](C(=O)N7C[C@H](O)C[C@H]7C(=O)N[C@@H](C)c7ccc(-c8scnc8C)cc7)C(C)(C)C)CC6)CSc6ccccc6)c(S(=O)(=O)C(F)(F)F)c5)cc4)CC3)c2)c1-c1ccc(F)cc1	31	9	320
CCn1c(C)c(S(C)(=O)=O)c(-c2cc(F)cc(N3CCN(c4ccc(NS(=O)(=O)c5ccc(N[C@H](CCN6CCN(CCCCCC(=O)N[C@H](C(=O)N7C[C@H](O)C[C@H]7C(=O)NC7(c8ccc(-c9scnc9C)cc8)CC7)C(C)(C)C)CC6)CSc6ccccc6)c(S(=O)(=O)C(F)(F)F)c5)cc4)CC3)c2)c1-c1ccc(F)cc1	6	21	40
CCn1c(C)c(S(C)(=O)=O)c(-c2cc(F)cc(N3CCN(c4ccc(NS(=O)(=O)c5ccc(N[C@H](CCN6CCN(C(=O)CCCCCC(=O)N[C@H](C(=O)N7C[C@H](O)C[C@H]7C(=O)N[C@@H](C)c7ccc(-c8scnc8C)cc7)C(C)(C)C)CC6)CSc6ccccc6)c(S(=O)(=O)C(F)(F)F)c5)cc4)CC3)c2)c1-c1ccccc1	0.5	15	108
CCn1c(C)c(C(=O)N2CCC(C)(O)C2)c(-c2cc(F)cc(N3CCN(c4ccc(NS(=O)(=O)c5ccc(N[C@H](CCN6CCN(C(=O)CCCCCC(=O)N[C@H](C(=O)N7C[C@H](O)C[C@H]7C(=O)N[C@@H](C)c7ccc(-c8scnc8C)cc7)C(C)(C)C)CC6)CSc6ccccc6)c(S(=O)(=O)C(F)(F)F)c5)cc4)CC3)c2)c1-c1ccc(F)cc1 (stereo partly drawn)	14	15	26900
